From patent EP2033655B1 (priority 2007, dated 2009)

The chains behind the UniProt entries cited, without tags or fusion partners. Residues count along the entry.
UniProt P19338, 309-710: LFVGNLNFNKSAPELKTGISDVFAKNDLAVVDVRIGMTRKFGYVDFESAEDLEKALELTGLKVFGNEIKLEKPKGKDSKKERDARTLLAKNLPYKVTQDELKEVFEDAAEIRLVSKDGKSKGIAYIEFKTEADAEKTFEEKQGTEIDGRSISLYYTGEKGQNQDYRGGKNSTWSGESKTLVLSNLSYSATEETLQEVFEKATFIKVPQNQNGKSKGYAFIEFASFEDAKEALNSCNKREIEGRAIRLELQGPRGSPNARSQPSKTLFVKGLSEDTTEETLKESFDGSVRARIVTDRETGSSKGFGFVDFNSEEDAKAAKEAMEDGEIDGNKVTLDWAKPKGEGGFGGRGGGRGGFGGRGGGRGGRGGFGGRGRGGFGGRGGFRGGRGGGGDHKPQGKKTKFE
UniProt P19338, 1-308: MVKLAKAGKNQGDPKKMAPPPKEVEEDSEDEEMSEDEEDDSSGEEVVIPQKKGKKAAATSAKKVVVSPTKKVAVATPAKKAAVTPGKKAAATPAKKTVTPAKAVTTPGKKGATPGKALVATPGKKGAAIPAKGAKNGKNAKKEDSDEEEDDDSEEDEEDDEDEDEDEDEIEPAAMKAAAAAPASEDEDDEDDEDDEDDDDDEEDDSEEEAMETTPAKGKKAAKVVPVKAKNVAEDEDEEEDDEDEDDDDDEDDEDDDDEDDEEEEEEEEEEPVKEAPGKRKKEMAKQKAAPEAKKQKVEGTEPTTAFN
UniProt P19338, whole entry: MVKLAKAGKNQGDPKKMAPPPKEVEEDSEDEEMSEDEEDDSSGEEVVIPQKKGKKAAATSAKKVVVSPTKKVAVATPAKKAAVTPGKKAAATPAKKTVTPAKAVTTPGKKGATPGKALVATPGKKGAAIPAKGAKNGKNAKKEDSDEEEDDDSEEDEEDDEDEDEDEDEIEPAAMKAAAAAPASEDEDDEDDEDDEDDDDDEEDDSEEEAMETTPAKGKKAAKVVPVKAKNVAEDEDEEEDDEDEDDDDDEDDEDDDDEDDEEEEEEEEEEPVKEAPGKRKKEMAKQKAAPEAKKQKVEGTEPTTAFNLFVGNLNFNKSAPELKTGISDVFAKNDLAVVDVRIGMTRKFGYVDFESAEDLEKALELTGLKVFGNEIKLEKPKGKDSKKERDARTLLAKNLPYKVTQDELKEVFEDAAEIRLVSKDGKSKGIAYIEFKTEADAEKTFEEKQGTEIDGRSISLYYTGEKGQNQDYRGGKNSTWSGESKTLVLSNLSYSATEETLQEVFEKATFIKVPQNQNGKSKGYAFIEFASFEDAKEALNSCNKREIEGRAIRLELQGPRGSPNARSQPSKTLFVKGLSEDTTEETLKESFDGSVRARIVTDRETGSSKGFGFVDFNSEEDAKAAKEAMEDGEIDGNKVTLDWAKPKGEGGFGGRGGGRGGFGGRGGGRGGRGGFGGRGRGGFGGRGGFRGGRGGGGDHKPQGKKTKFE

Legend:
nucleolin = target: T1, nucleolin (Homo sapiens, UniProt P19338); format: binding
T1 construct: [35S]Met/Cys-labeled full-length nucleolin, N-terminal and the C-terminal parts containing amino acids 1-707, 1-308, and 309-707, respectively; made in house; host or cells: in vitro transcription/translation, rabbit reticulocyte lysate system

[1] = target: T2, cell-surface expressed nucleolin (Homo sapiens, UniProt P19338); assay: cell-based
T2 construct: endogenous in cells; host or cells: HeLa P4 cells

| Compound | binding of HB-19 to C-terminal part of nucleolin (nucleolin) | binding of HB-19 to N-terminal part of nucleolin (nucleolin) | binding of HB-19 to full-length nucleolin (nucleolin) | IC50 [1] [nM] |
| --- | --- | --- | --- | --- |
| CCCC[C@H](NC(=O)[C@H](CCCCNC(=O)[C@H](CCCNC(=N)N)NC(=O)[C@@H]1CCCN1C[C@@H](N)CCCCN)NC(=O)[C@H](CCC(=O)O)NC(=O)[C@H](CCCCNC(=O)[C@H](CCCNC(=N)N)NC(=O)[C@@H]1CCCN1C[C@@H](N)CCCCN)NC(=O)[C@@H]1CCCN1C(=O)CNC(=O)[C@H](CCCCNC(=O)[C@H](CCCNC(=N)N)NC(=O)[C@@H]1CCCN1C[C@@H](N)CCCCN)NC(=O)[C@H](CCCCN)NC(=O)[C@H](CCCCNC(=O)[C@H](CCCNC(=N)N)NC(=O)[C@@H]1CCCN1C[C@@H](N)CCCCN)NC(=O)[C@H](CCCNC(=N)N)NC(=O)[C@@H]1CCCN1C[C@@H](N)CCCCN)C(N)=O [HB-19, 5[Lys (CH2N)Pro-Arg]-template-assembled synthetic peptide] | bound efficiently | did not bind at all | found to bind | – |
| CC(=O)N[C@@H](CCCCNC(=O)[C@H](CCCNC(=N)N)NC(=O)[C@@H]1CCCN1C[C@@H](N)CCCCN)C(=O)NC(C)(C)C(=O)NCC(=O)N[C@@H](CCCCNC(=O)[C@H](CCCNC(=N)N)NC(=O)[C@@H]1CCCN1C[C@@H](N)CCCCN)C(=O)NC(C)(C)C(=O)NCC(=O)N[C@@H](CCCCNC(=O)[C@H](CCCNC(=N)N)NC(=O)[C@@H]1CCCN1C[C@@H](N)CCCCN)C(=O)NC(C)(C)C(=O)NCC(=O)N[C@@H](CCCCNC(=O)[C@H](CCCNC(=N)N)NC(=O)[C@@H]1CCCN1C[C@@H](N)CCCCN)C(=O)NC(C)(C)C(=O)NCC(=O)N[C@@H](CCCCNC(=O)[C@H](CCCNC(=N)N)NC(=O)[C@@H]1CCCN1C[C@@H](N)CCCCN)C(=O)NC(C)(C)C(=O)NCC(N)=O [Nucant 3] | – | – | – | 100 to 200 |
| CC(=O)N[C@@H](CCCCNC(=O)[C@H](CCCNC(=N)N)NC(=O)[C@@H]1CCCN1C[C@@H](N)CCCCN)C(=O)NC(C)(C)C(=O)NCC(=O)N[C@@H](CCCCNC(=O)[C@H](CCCNC(=N)N)NC(=O)[C@@H]1CCCN1C[C@@H](N)CCCCN)C(=O)NC(C)(C)C(=O)NCC(=O)N[C@@H](CCCCNC(=O)[C@H](CCCNC(=N)N)NC(=O)[C@@H]1CCCN1C[C@@H](N)CCCCN)C(=O)NC(C)(C)C(=O)NCC(=O)N[C@@H](CCCCNC(=O)[C@H](CCCNC(=N)N)NC(=O)[C@@H]1CCCN1C[C@@H](N)CCCCN)C(=O)NC(C)(C)C(=O)NCC(=O)N[C@@H](CCCCNC(=O)[C@H](CCCNC(=N)N)NC(=O)[C@@H]1CCCN1C[C@@H](N)CCCCN)C(=O)NC(C)(C)C(=O)NCC(=O)N[C@@H](CCCCNC(=O)[C@H](CCCNC(=N)N)NC(=O)[C@@H]1CCCN1C[C@@H](N)CCCCN)C(=O)NC(C)(C)C(=O)NCC(N)=O [Nucant 6] | – | – | – | < 100 |
